The values that follow come from patent US11685761B2, “Cyclic di-nucleotide compounds as sting agonists” (Merck Sharp & Dohme Corp., priority 2017, dated 2023).

By UniProt entry, the sequences of proteins in these tests, tags left out. Chains listed by the source or under a name are the forms on record and can include a tag or linker. Residues count along the entry.
UniProt Q86WV6, 1-379 with tags or gaps H232R: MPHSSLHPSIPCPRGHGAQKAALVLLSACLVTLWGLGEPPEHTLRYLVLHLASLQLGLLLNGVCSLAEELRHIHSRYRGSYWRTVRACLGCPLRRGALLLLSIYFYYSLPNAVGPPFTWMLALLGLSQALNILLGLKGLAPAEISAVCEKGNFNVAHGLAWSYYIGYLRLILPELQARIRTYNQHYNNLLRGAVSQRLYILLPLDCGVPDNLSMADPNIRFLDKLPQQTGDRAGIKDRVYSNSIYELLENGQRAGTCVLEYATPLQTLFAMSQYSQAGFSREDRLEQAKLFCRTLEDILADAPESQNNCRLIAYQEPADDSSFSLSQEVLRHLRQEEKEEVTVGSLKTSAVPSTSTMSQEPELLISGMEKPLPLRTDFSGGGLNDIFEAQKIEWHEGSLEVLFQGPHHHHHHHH
UniProt Q86WV6, 1-379 with tags or gaps G230A/H232R/R293Q/R71H: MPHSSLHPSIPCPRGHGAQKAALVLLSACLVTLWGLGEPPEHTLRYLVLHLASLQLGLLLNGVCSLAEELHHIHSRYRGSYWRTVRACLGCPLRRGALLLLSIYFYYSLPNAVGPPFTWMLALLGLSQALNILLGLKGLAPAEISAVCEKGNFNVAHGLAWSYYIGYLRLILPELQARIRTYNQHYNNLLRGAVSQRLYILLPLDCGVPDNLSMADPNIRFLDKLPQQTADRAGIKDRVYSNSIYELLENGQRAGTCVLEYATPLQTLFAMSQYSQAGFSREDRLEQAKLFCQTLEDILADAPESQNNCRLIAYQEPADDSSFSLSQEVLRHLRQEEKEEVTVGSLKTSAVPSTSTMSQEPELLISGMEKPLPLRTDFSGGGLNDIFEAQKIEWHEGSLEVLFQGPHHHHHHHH

The subject of assay [1] is IFN-β secretion from THP1 cells. As to the kind of experiment: IFN-β secretion in THP1 cell culture (5 h). The settings on record: 5 h incubation, compound at 30 μM, 30 uM cGAMP = 100%, tested form: triethylammonium salt.
The target in another assay is full-length HAQ STING (Homo sapiens, UniProt Q86WV6, G230A/H232R/R293Q/R71H). As to the kind of experiment: 3H-cGAMP filtration binding assay (HAQ STING). The conditions noted are these: read-out: EC50 (nM), 3H-cGAMP filtration binding assay for HAQ STING; competition with tritiated cGAMP ligand; T. ni cell membranes overexpressing full-length HAQ STING; tested form: triethylammonium salt.

The next assay concerns the target full-length WT STING (Homo sapiens, UniProt Q86WV6, H232R). As to the kind of experiment: 3H-cGAMP filtration binding assay (WT STING). The settings on record: read-out: EC50 (nM), 3H-cGAMP filtration binding assay for WT STING; competition with tritiated cGAMP ligand; T. ni cell membranes overexpressing full-length WT STING; tested form: triethylammonium salt.

On to `Nc1nc2c(ncn2[C@@H]2O[C@@H]3COP(=O)(S)O[C@H]4C[C@H](n5cc(F)c6c(=O)[nH]cnc65)O[C@@H]4COP(=O)(S)O[C@@H]2[C@@H]3F)c(=O)[nH]1` (single isomer, unassigned), for which the “% Effect at 30 μM relative to 2′3′-cGAMP” value in assay [1] is given as 53%. For the same molecule, the EC50 at full-length HAQ STING was 14 nM; at full-length WT STING it was 21 nM.
